Experimental data as given in patent US5688767A, “Treatment of endotoxin-associated disorders with cationic peptides” (priority 1996, dated 1997).

Experiments:
P. aeruginosa = type: cell-based, Pseudomonas aeruginosa
Method: (§1) The minimum inhibitory concentrations of (MIC) of CEME, CEMA and melittin were determined for a number of different bacteria (Table 2). Briefly, cells were grown overnight at 37° C. in LB-S (Luria broth without any salt supplement) and diluted one in 10,000 in the same medium to give concentrations of about 10^4 to 10^5 CFU/ml. The broth dilutions were set up in a 96 well microtiter plate by putting 200 μl of LB-S containing the initial concentration of antibiotic or compound in column 1 and 100 μl of the same medium in columns 2-12. The compounds were diluted by taking 100 μl of broth from column 1 and mixing it with column 2, resulting in a one in two dilution. This was continued to column 10. Finally, 10 μl of bacteria were pipetted into columns 1-11, and the plates incubated overnight at 37° C. The next day the plates were scored for growth in the wells, and the MIC determined.
(§2) Bacteria included the Bort strain of E. coli (Bortolussi, et al., Inf. Immun., 25:293, 1979) that was originally derived from a case of neonatal meningitis, and which is therefore considered a relevant pathogenic strain to study, and the 0111:B4 strain of E. coli (kindly provided by Dr. D. Morrison) which is a standard source of endotoxin. (Kelly, et al., Inf. Immun., 59:4491, 1991). In addition, P. aeruginosa PA01 strain H103, P. aeruginosa M2, P. aeruginosa K799, Eschericha coli UB 1005, Enterobacter cloacae 218S, Salmonella typhimurium MS7953s, Klebsiella pneumoniae ATCC 13883, Xanthomonas maltophilia ATCC 13637, and Acinetobacter calcoacetious 8193 were employed. LPS was obtained from E. coli Bort by the technique of Westphal and Jann, (Westphal, et al., Acad. Press, Inc. NY., 5:83) and from P. aeruginosa H103 by the method of Darveau and Hancock, (Darveau, et al., J. Bacteriol, 155:831, […]). E. coli 0111:B4 LPS was purchased from Sigma.

E. coli = type: cell-based, Escherichia coli
Method: as §1, §2

S. typhimurium = type: cell-based, Salmonella typhimurium
Method: as §1
(§3) Bacteria included the Bort strain of E. coli (Bortolussi, et al., Inf. Immun., 25:293, 1979) that was originally derived from a case of neonatal meningitis, and which is therefore considered a relevant pathogenic strain to study, and the 0111:B4 strain of E. coli (kindly provided by Dr. D. Morrison) which is a standard source of endotoxin. (Kelly, et al., Inf. Immun., 59:4491, 1991). […]

E. cloacae = type: cell-based, Enterobacter cloacae; conditions: strain 218S, Parent of 218R1 (Table 2)
Method: as §1, §3

S. aureus = type: cell-based, Staphylococcus aureus
Method: as §1

P. AERUGINOSA H309 = type: cell-based, Pseudomonas aeruginosa
Method: as §1, with “Briefly,” for “The minimum inhibitory concentrations of (MIC) of CEME, CEMA and melittin were determined for a number of different bacteria (Table 2). Briefly,”

P. aeruginosa H103 LPS = test: Dansyl polymyxin (DPx) displacement from purified LPS; type: binding, Pseudomonas aeruginosa; conditions: 2.5 μM DPx, 3 μg/ml LPS, 5 mM HEPES pH 7.2, average of at least three trials
Method: In this assay, DPx was incubated with LPS to saturate the binding sites and then, while polycationic compounds are titrated into the reaction, displacement of the DPx was monitored by the decrease in fluorescence (FIG. 9). P. aeruginosa LPS was isolated as previously described (Darveau, et al., J of Bacteriology, 155:831, 1983) Dansyl polymyxin was synthesized as described by Schindler, et al., B. Antimicrobial Agents and Chemo, 8:95, 1975.
The method of Moore, et al., (Antimicrobial Agents and Chemo., 29:496, 1987), was used to test how much DPx was needed to saturate the binding sties on LPS. Briefly, 5 μl samples of 100 μM DPx were titrated sequentially into 1 ml of 3 μg/ml of LPS until a maximum fluorescence was reached. The fluorescence was measured in a Perkin-Elmer 650-10S fluorescence spectrophotometer with an excitation wavelength of 340 nm and an emission wavelength of 485 nm using slit widths of 5 nm. […] For the binding inhibition assays (Moore, et al., Antimicrobial Agents and Chemo., 29:496, 1987), 2.5 μM DPx was added to 3 μg/ml of H103 LPS in 5 mM HEPES pH 7.2. The test compounds were added 5 μl at a time and the decrease in fluorescence due to displacement of the DPx from the LPS was recorded.
When the data was plotted as a double reciprocal plot (FIG. 10), the X-intercept provided a value that is equal to -1/I50.

[1] = test system: P. aeruginosa H309 Whole Cells; test: DPx binding inhibition using whole cells; parameters: species or system Pseudomonas aeruginosa; conditions: DPx at 90-100% binding saturation, average of at least three trials
Method: For DPx binding inhibition assays using whole cells instead of purified LPS, H309 cells were prepared the same way as for the lysozyme lysis assay. The assay consisted of 10 μl of cells at an OD600 of 0.5, 990 μl of 5 mM HEPES pH 7.2 and 5 mM KCN, and the concentration of DPx that gave 90-100% binding saturation. […] Compounds were titrated in, and I50 values were determined as described above.

SMILES: CC[C@H](C)[C@H](NC(=O)CN)C(=O)NCC(=O)N[C@@H](C)C(=O)N[C@H](C(=O)N[C@@H](CC(C)C)C(=O)N[C@@H](CCCCN)C(=O)N[C@H](C(=O)N[C@@H](CC(C)C)C(=O)N[C@H](C(=O)N[C@H](C(=O)NCC(=O)N[C@@H](CC(C)C)C(=O)N1CCC[C@H]1C(=O)N[C@@H](C)C(=O)N[C@@H](CC(C)C)C(=O)N[C@H](C(=O)N[C@@H](CO)C(=O)N[C@@H](Cc1c[nH]c2ccccc12)C(=O)N[C@H](C(=O)N[C@@H](CCCCN)C(=O)N[C@@H](CCCNC(=N)N)C(=O)N[C@@H](CCCCN)C(=O)N[C@@H](CCCNC(=N)N)C(=O)N[C@@H](CCC(N)=O)C(=O)N[C@@H](CCC(N)=O)C(N)=O)[C@@H](C)CC)[C@@H](C)CC)[C@@H](C)O)[C@@H](C)O)C(C)C)C(C)C [Melittin, melittin]
- MIC (P. aeruginosa; strain H187, Parent of H188): 8 µg/mL (≈ 2.81 µM)
- MIC (P. aeruginosa; strain H188, Antibiotic sensitive): 8 µg/mL (≈ 2.81 µM)
- MIC (P. aeruginosa; strain H309, Wildtype): 8 µg/mL (≈ 2.81 µM)
- MIC (E. coli; strain DC2, Polymyxin sensitive): 4 µg/mL (≈ 1.41 µM)
- MIC (E. coli; strain SC9251, Parent of SC9252): 8 µg/mL (≈ 2.81 µM)
- MIC (E. coli; strain UB1005, Parent of DC2 (Table 2)): 8 µg/mL (≈ 2.81 µM)
- MIC (S. typhimurium; strain C587, Parent of C590): 16 µg/mL (≈ 5.62 µM)
- MIC (S. typhimurium; strain C590, Defensin sensitive): 8 µg/mL (≈ 2.81 µM)
- MIC (E. cloacae): 8 µg/mL (≈ 2.81 µM)
- MIC (S. aureus; strain RN4220, Methicillin sensitive): 8 µg/mL (≈ 2.81 µM)
- MIC (S. aureus; strain SAP0017, Methicillin resistant): 8 µg/mL (≈ 2.81 µM)
- MIC (P. AERUGINOSA H309; +5 mM Mg^++): > 64 µg/mL
- MIC (P. AERUGINOSA H309; +80 mM Na^+): 16 µg/mL (≈ 5.62 µM)
- MIC (P. AERUGINOSA H309; No addition): 8 µg/mL (≈ 2.81 µM)
- I50, Value in μg/ml (P. aeruginosa H103 LPS): 8.48 ± 1.44 µg/mL
- IC50 (P. aeruginosa H103 LPS; read-out: I50, Value in μM): 2.97 ± 0.506 µM
- I50, Value in μg/ml [1]: 1.37 ± 0.22 µg/mL
- IC50 ([1]; read-out: I50, Value in μM): 0.48 ± 0.08 µM

Values after ≈ are worked out from the molar mass of the structure shown. Where two headings read alike, the source gives them in different places.
